Assay results as given in ChEMBL document CHEMBL2401731, “Synthesis and pharmacological evaluation of 2-aryloxy/arylamino-5-cyanobenzenesulfonylureas as novel thromboxane A₂ receptor antagonists” (Eur J Med Chem, 2013).

Species: Homo sapiens
Experiment: Selectivity index, ratio of IC50 for human thromboxane A2 receptor alpha to IC50 for human thromboxane A2 receptor beta
In short: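 IC50 at TPα divided by IC50 at TPβ. Both IC50s come from U-46619-stimulated Fluo-4 calcium mobilization in HEK293 cells stably expressing each isoform. Mean ± SD of three separate experiments.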
For `Cc1ccc(Nc2ccc(C#N)cc2S(=O)(=O)NC(=O)NC(C)(C)C)cc1`, the Ratio IC50 was 0.8.
For `Cc1cccc(Oc2ccc(C#N)cc2S(=O)(=O)NC(=O)NC(C)(C)C)c1`, the Ratio IC50 was 1.5.
With `Cc1ccccc1Nc1ccc(C#N)cc1S(=O)(=O)NC(=O)NC(C)(C)C` the Ratio IC50 was 0.6.
`Cc1ccc(Oc2ccc(C#N)cc2S(=O)(=O)NC(=O)NC(C)(C)C)cc1` was tested, and the Ratio IC50 was 1.1.
In the case of `Cc1ccccc1Oc1ccc(C#N)cc1S(=O)(=O)NC(=O)NC(C)(C)C`, the Ratio IC50 is reported as 2.5.
